# Values quoted from earlier work as cited in patent EP0818443B1, “Mercaptoketones and mercaptoalcohols, a process for their preparation and their use as inhibitors of matrix metalloproteinases” (American Cyanamid Company, priority 1996, dated 1998).
# Biological target: T1, human collagenase (Homo sapiens, UniProt P03956)
# T1 sequence (P03956 100-469): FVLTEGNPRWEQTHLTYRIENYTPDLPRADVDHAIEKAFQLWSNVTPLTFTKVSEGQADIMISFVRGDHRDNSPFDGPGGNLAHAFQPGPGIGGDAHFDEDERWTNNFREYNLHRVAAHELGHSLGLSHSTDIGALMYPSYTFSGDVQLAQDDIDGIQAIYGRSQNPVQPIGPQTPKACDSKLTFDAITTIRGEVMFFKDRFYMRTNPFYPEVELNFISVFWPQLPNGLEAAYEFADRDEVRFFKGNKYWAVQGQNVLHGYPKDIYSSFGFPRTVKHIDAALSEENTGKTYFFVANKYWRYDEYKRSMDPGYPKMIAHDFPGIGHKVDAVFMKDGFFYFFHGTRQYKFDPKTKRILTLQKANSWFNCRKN
# Conditions: SSR isomer; cited from earlier work
structure (smiles),measurement,value
CNC(=O)[C@H](Cc1ccc(OC)cc1)NC(=O)[C@H](CC(C)C)[C@@H](S)CC(=O)OCc1ccccc1,IC50,2 nM
